# Assay results taken from PubChem BioAssay AID720580 (National Center for Advancing Translational Sciences (NCATS), 2013).
# Several values for one entry are separate records, joined by “and”; a condition that tells them apart may be missing. Equal values may be shown once. The entries are a selection whose mix differs from that of the whole data set. Some of these compounds have results that are not shown, active ones among them. Results filed as inconclusive are left out. Activity calls are given as the source filed them. Calls follow the shape of the full dose curve; tested in A549 cells.
# Experiment: qHTS for Stage-Specific Inhibitors of Vaccinia Orthopoxvirus: Venus Reporter Primary qHTS; also: nearly all actives have a fitted effect of over 30% in size
# Conditions: Vaccinia virus Venus reporter expression, fluorescence; at 36.5 µM (top of the series)
# % is scaled to controls: 0 for no effect and ±100 for the full control effect.
row,SMILES,"activity change, negative = inhibition"
1,O=C(CBr)c1ccc(Cl)cc1,inactive: -4.5%
2,CN(C)C1(CNC(=O)c2ccc(Br)cc2)CCCCC1,inactive: -6.21%
3,COc1cccc(C(=O)NCC2(N3CCCCC3)CCCCC2)c1,inactive: 6.9%
4,COc1ccc(Cl)cc1C(=O)NCC1(N(C)C)CCCCC1,inactive: 6.88%
5,COc1ccc(C(=O)NCC2(N(C)C)CCCCC2)cc1Cl,inactive: -4.67%
6,O=C(NCC1(N2CCCCC2)CCCCC1)c1cccc(Cl)c1,inactive: 0%
7,COc1cccc(C(=O)NCC2(N3CCOCC3)CCCCC2)c1,inactive: -1.78%
8,O=C(OC1CN2CCC1CC2)C(CO)(c1ccccc1)c1ccccc1 (configuration not stated),inactive: -16.4%
9,CC(C)COc1ccc(C(=O)NCC2(N(C)C)CCCCC2)cc1,inactive: -6.71%
10,C=C(C)C#CC(O)(C(=O)OC1CCN(C)CC1)c1ccccc1 (configuration not stated),inactive: -4.63%
11,Cc1cccc(C(=O)NCC2(N(C)C)CCCCC2)c1,inactive: -14.5%
12,COc1cc(C(=O)NCC2(N(C)C)CCCCC2)cc(OC)c1OC,inactive: -1.97%
13,CC(C)Oc1ccc(C(=O)NCC2(N(C)C)CCCCC2)cc1,inactive: -13.3% and inactive: -12.7%
14,O=C(OCCN1CCCC1)C(O)(c1ccccc1)c1ccccc1,inactive: -0.136%
15,CN(C)c1cccc(C(=O)NCC2(N(C)C)CCCCC2)c1,inactive: 3.47%
16,O=C(NCC1(N2CCCCC2)CCCCC1)c1cc([N+](=O)[O-])ccc1Cl,inactive: -8.41%

row,SMILES,"activity change, negative = inhibition"
1,CN(C)C1(CNC(=O)c2cccc(Cl)c2)CCCCC1,inactive: -21.2%
2,CCN(CC)CC(C)C(C)OC(=O)C(O)(c1ccccc1)c1ccccc1 (configuration not stated),inactive: -2.01%
3,CC(C)N1C(=O)CC2(CCN(CCOC(=O)C(O)(c3ccccc3)c3ccccc3)CC2)C1=O,inactive: -22.5%
4,Cc1ccc(C(=O)NCC2(N3CCCCC3)CCCCC2)cc1,inactive: -11.6%
5,CN(C)C1(CNC(=O)c2ccccc2F)CCCCC1,inactive: 2.35%
6,Cc1ccccc1C(=O)NCC1(N2CCCCC2)CCCCC1,inactive: -9.09%
7,CN(C)C1(CNC(=O)c2ccccc2[N+](=O)[O-])CCCCC1,inactive: 0.243%
8,CN(C)c1ccc(C(=O)NCC2(N(C)C)CCCCC2)cc1,inactive: -9.25%
9,CN(C)C1CCCC1OC(=O)C(O)(c1ccccc1)c1ccccc1 (configuration not stated),inactive: -2.34%
10,CCCCOc1ccccc1C(=O)NCC1(N(C)C)CCCCC1,inactive: -4.95%
11,C=CCN1CCN(CCOC(=O)C(O)(c2ccccc2)c2ccccc2)CC1,inactive: -11.6%
12,O=C(NCC1(N2CCCCC2)CCCCC1)c1cc(F)c(F)cc1Cl,inactive: -5.45%
13,CCOc1cccc(C(=O)NCC2(N(C)C)CCCCC2)c1,inactive: 2.97%
14,CCN1CCCC(OC(=O)C2(O)c3ccccc3C=Cc3ccccc32)C1 (configuration not stated),inactive: -13.9%
15,Cc1cc(C(=O)NCC2(N3CCCCC3)CCCCC2)ccc1[N+](=O)[O-],inactive: 6.8%
16,O=C(NCC1(N2CCCCC2)CCCCC1)c1cccc(Br)c1,inactive: 6.51%
